# From publication PMC7611678 (ACS catalysis, 2021)
# System: HspUPO
# Details: 2 mM H2O2, McIlvaine buffer pH 4, 25 °C; glycosylated enzyme
structure (smiles),measurement,value
"CCn1c(=NN=c2sc3cc(S(=O)(=O)O)ccc3n2CC)sc2cc(S(=O)(=O)O)ccc21 [ABTS, 2,2'-Azino-bis(3-ethylbenzothiazoline-6-sulfonic acid) diammonium salt]",Km,30 ± 3.65 µM

# Counter-ions that a name gives are not always drawn.
